Results on 50 compounds are retold here after PubChem BioAssay AID1511 (Johns Hopkins Ion Channel Center, 2009).

Chains of the proteins cited; added tags and fusions are not shown. Lines headed by an entry give the natural chain unless they say otherwise; changes in a name come on top.
UniProt Q12809: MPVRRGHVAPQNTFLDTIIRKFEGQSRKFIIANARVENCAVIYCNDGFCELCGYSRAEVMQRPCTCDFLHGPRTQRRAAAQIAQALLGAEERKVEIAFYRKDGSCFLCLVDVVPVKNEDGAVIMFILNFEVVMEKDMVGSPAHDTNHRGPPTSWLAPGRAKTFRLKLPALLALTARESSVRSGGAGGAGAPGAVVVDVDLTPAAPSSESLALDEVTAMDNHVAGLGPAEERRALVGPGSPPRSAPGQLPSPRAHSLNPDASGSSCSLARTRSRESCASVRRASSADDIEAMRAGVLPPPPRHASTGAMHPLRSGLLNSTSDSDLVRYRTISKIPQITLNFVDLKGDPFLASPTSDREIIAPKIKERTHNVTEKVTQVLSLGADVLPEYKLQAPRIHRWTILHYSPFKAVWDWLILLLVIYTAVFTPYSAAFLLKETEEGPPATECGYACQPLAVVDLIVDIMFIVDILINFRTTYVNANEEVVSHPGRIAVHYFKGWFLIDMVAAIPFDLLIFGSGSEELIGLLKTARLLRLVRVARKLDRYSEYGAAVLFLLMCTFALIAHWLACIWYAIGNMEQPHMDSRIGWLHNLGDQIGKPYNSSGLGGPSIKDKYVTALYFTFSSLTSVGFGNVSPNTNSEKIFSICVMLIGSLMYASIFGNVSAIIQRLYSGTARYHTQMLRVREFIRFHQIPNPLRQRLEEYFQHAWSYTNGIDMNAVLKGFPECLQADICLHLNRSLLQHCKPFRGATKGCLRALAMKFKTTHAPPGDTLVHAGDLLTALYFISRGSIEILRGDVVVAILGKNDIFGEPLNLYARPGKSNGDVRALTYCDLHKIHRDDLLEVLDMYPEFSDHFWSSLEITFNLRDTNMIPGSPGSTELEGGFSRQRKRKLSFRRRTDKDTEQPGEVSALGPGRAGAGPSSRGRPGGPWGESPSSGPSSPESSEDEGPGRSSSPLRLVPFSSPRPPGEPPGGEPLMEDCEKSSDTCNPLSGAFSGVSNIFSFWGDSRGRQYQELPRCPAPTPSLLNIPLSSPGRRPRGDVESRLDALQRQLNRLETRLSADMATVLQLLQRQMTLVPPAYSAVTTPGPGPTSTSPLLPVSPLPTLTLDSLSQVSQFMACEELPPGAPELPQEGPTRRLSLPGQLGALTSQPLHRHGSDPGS

Molecules are shown by their SMILES. The entries are a selection whose mix differs from that of the whole data set. Active and inactive are the calls of the source.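 How the source made its calls: active means activation above the mean of controls blocked by dofetilide plus 5 SD; inactive means the rest.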

The assay concerns the target Voltage-gated inwardly rectifying potassium channel KCNH2 (Homo sapiens) (UniProt Q12809). Nature of the assay: PubChem AID 1511.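 Further: thallium influx through hERG after potassium depolarization seen as dye fluorescence rise.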 The conditions noted are these: CHO-hERG, FluxOR thallium flux, dofetilide IC70 present; at 10 µM; stronger effect = higher value. Background: Block of hERG is tested as a sign of cardiac risk.
On to `CC(C)CC(=O)NC(Sc1ccc(Cl)cc1)C(Cl)(Cl)Cl` (stereo not given), for which the activation (rescue from dofetilide block), less the hit threshold was inactive: -3.74%.

With `CN1CCCC(OC(=O)C(c2ccccc2)c2ccccc2)C1` (stereo not given), the activation (rescue from dofetilide block), less the hit threshold was inactive: -7.2%.

As for `Clc1ccc(Cl)c(NC2=NCC(CBr)S2)c1` (stereo not given), the activation (rescue from dofetilide block), less the hit threshold was inactive: -9.66%.

Regarding `COc1ccccc1OP(=O)(Nc1ccc(C)cn1)Oc1ccccc1OC`, the activation (rescue from dofetilide block), less the hit threshold is inactive: -8.8%.

Take `Cc1ccc(OP(=O)(Nc2nccs2)Oc2ccc(C)cc2)cc1`: the activation (rescue from dofetilide block), less the hit threshold was inactive: -3.1%.

On to `Cc1ccc(N/C(=N/P(=O)(N2CCOCC2)N2CCOCC2)N2CCOCC2)cc1`, for which the activation (rescue from dofetilide block), less the hit threshold is inactive: -17.4%.

With `NC(=O)c1cc([N+](=O)[O-])cc([N+](=O)[O-])c1N`, the activation (rescue from dofetilide block), less the hit threshold was inactive: -3.96%.

In the case of `CC1CCN(C(=O)Oc2c(Cl)cc(Cl)c3cccnc23)CC1`, the activation (rescue from dofetilide block), less the hit threshold was inactive: -7.04%.

Regarding `CC(C)=N/N=C(\N)N[N+](=O)[O-]`, the activation (rescue from dofetilide block), less the hit threshold is inactive: -4.59%.

With `CN(C)C(=O)OCCc1n(C)cc[n+]1C`, the activation (rescue from dofetilide block), less the hit threshold is inactive: -4.12%.

In the case of `CCN(/C(=N/P(=O)(N1CCOCC1)N1CCOCC1)N1CCOCC1)c1ccc(OC)cc1`, the activation (rescue from dofetilide block), less the hit threshold was inactive: -4.84%.

On to `Nc1ccc([As](=O)(O)c2ccc(N)cc2)cc1`, for which the activation (rescue from dofetilide block), less the hit threshold is inactive: -9.51%.

As to `C[N+]1=C2C=CC=CC=C2SC12C([N+](=O)[O-])=CC([N+](=O)[O-])=C[C-]2[N+](=O)[O-]` (stereo not given), the activation (rescue from dofetilide block), less the hit threshold is inactive: -6.17%.

Consider `Cc1ccc(NP(=O)(Oc2ccccc2)Oc2ccccc2)nc1`, for which the activation (rescue from dofetilide block), less the hit threshold is inactive: -3.78%.

Consider `O=[N+]([O-])c1cc([N+](=O)[O-])c(CCNc2ccccc2)c([N+](=O)[O-])c1`, for which the activation (rescue from dofetilide block), less the hit threshold was inactive: -12.1%.

Consider `CCc1nc2c(n1)c1c(non1O)c1c2no[n+]1[O-]`, for which the activation (rescue from dofetilide block), less the hit threshold is inactive: -33.5%.

As for `CC(=O)N1C2C3N(C(C)=O)C1C1N(C(C)=O)C(C(N1C(C)=O)N3C(C)=O)N2C(C)=O`, the activation (rescue from dofetilide block), less the hit threshold was inactive: -4.86%.

With `O=[N+]([O-])c1cccc2n[nH]nc12`, the activation (rescue from dofetilide block), less the hit threshold is inactive: -2.54%.

As for `COc1ccc(C2=NCC(CBr)S2)cc1` (stereo not given), the activation (rescue from dofetilide block), less the hit threshold is inactive: -15.4%.

For the compound `O=C(O)CNc1ccc([As](=O)(O)O)cc1`, the activation (rescue from dofetilide block), less the hit threshold is inactive: -8.78%.

Turning to `O=[N+]([O-])c1cccc(NC2=NCC(CBr)S2)c1` (stereo not given), the activation (rescue from dofetilide block), less the hit threshold is inactive: -5.83%.

Consider `O=[N+]([O-])c1ncn(CCn2ncnc2[N+](=O)[O-])n1`, for which the activation (rescue from dofetilide block), less the hit threshold is inactive: -21.4%.

As to `CC(C)(C)C(=O)NC(Sc1ccncn1)C(Cl)(Cl)Cl` (stereo not given), the activation (rescue from dofetilide block), less the hit threshold is inactive: -7.62%.

For the compound `O=C(Nc1cc([As](=O)(O)O)ccc1O)c1ccccc1`, the activation (rescue from dofetilide block), less the hit threshold was inactive: -8.7%.

On to `Cc1cc(SC(NC=O)C(Cl)(Cl)Cl)ncn1` (stereo not given), for which the activation (rescue from dofetilide block), less the hit threshold is inactive: -5.88%.

In the case of `O=P(Nc1ccccn1)(c1cccc2ccccc12)c1cccc2ccccc12`, the activation (rescue from dofetilide block), less the hit threshold was inactive: -2.63%.

In the case of `O=[N+]([O-])c1ccc(Nc2ccc(Oc3ccc([N+](=O)[O-])cc3[N+](=O)[O-])cc2)c([N+](=O)[O-])c1`, the activation (rescue from dofetilide block), less the hit threshold was inactive: -12.5%.

On to `CCOC(=O)Nc1cccc([As](=O)(O)O)c1`, for which the activation (rescue from dofetilide block), less the hit threshold was inactive: -0.66%.

For `CCCCOc1ccc(C(=O)NCC2(N3CCCCC3)CCCCC2)cc1OC`, the activation (rescue from dofetilide block), less the hit threshold is inactive: -7.58%.

On to `Cc1cc(SC(NC(=O)c2ccccc2)C(Cl)(Cl)Cl)nc(C(C)C)n1` (stereo not given), for which the activation (rescue from dofetilide block), less the hit threshold is inactive: -8.95%.

For the compound `CCOC(=O)Nc1ccc([As](=O)(O)O)c(O)c1`, the activation (rescue from dofetilide block), less the hit threshold was inactive: -4.81%.

For the compound `CCC(C)N(CC(C)C)C(=S)SC(NC(C)=O)C(Cl)(Cl)Cl` (stereo not given), the activation (rescue from dofetilide block), less the hit threshold was inactive: -7.34%.

With `O=C(OC1CN2CCC1CC2)c1cccc([N+](=O)[O-])c1` (stereo not given), the activation (rescue from dofetilide block), less the hit threshold is inactive: -4.22%.

In the case of `CCOC(=O)c1ccc(NC(=O)C(C)(CCl)SC)cc1` (stereo not given), the activation (rescue from dofetilide block), less the hit threshold was inactive: -4.2%.

Regarding `O=C(COc1ccccc1)OC1CN2CCC1CC2` (stereo not given), the activation (rescue from dofetilide block), less the hit threshold was inactive: -0.6%.

As to `O=C(Nc1ccncc1[N+](=O)[O-])c1ccc([N+](=O)[O-])cc1[N+](=O)[O-]`, the activation (rescue from dofetilide block), less the hit threshold was inactive: -9.05%.

With `COc1ccc(N/C(=N/P(=O)(N2CCOCC2)N2CCOCC2)N2CCOCC2)cc1`, the activation (rescue from dofetilide block), less the hit threshold is inactive: -9.08%.

For the compound `COc1ccc2nc(NP(=O)(c3ccccc3)c3ccccc3)sc2c1`, the activation (rescue from dofetilide block), less the hit threshold was inactive: -6.29%.

`COc1cc(I)ccc1[As](=O)(O)O`: the activation (rescue from dofetilide block), less the hit threshold is inactive: -10.5%.

`Cc1c2c(nc3ccccc13)SC(C(Cl)Cl)C2` (stereo not given): the activation (rescue from dofetilide block), less the hit threshold is inactive: -5.34%.

With `O=C(OC1CN2CCC1CC2)C12CC3CC(CC(C3)C1)C2` (stereo not given), the activation (rescue from dofetilide block), less the hit threshold is inactive: -4.48%.

With `Cc1cc(=O)[nH]c(N[N+](=O)[O-])n1`, the activation (rescue from dofetilide block), less the hit threshold is inactive: -12.5%.

In the case of `CC(C)NC(=O)NP(=O)(Oc1ccccc1)Oc1ccccc1`, the activation (rescue from dofetilide block), less the hit threshold is inactive: -4.25%.

Regarding `CCN(CC)C(=S)SC(NC=O)C(Cl)(Cl)Cl` (stereo not given), the activation (rescue from dofetilide block), less the hit threshold was inactive: -20.5%.

As for `O=[N+]([O-])c1cc([N+](=O)[O-])c(-c2ccn[nH]2)s1`, the activation (rescue from dofetilide block), less the hit threshold is inactive: -1.07%.

With `ClCCSc1nnc(-c2cccnc2)o1`, the activation (rescue from dofetilide block), less the hit threshold is inactive: -1.5%.

As for `CC(C)c1ccc(OP(=O)(Nc2ccccn2)Oc2ccccc2F)cc1` (stereo not given), the activation (rescue from dofetilide block), less the hit threshold is inactive: -3.42%.

Take `Cc1ccc(OP(=O)(Nc2ccc([N+](=O)[O-])cn2)Oc2ccc(C)cc2)cc1`: the activation (rescue from dofetilide block), less the hit threshold was inactive: -12.1%.

As to `CC(Cc1ccc(O)cc1)NCC(O)c1cc(O)cc(O)c1` (stereo not given), the activation (rescue from dofetilide block), less the hit threshold is inactive: -2%.

In the case of `Cc1ccc2nc3c(c(C)c2c1)CC(C(Cl)Cl)S3` (stereo not given), the activation (rescue from dofetilide block), less the hit threshold is inactive: -9.55%.
